## Yeast mating assay B: variants of the scFv Ab-14

Source: Li et al. 2023 (doi:10.1038/s41467-023-39022-2), MIT Lincoln Laboratory and A-Alpha Bio; data file from the FLAb repository.

All variants were tested on one target, the spike HR2 peptide PDVDLGDISGINAS (SARS-CoV-2).

Ab-14 is the parent antibody, in scFv form: VH, then the linker GGGGSGGGGSGGGGS, then VL. The heavy chain is unchanged in all variants.
VH: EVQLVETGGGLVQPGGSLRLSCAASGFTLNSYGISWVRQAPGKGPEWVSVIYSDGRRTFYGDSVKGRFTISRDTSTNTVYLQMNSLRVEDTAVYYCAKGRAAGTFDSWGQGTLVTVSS
VL: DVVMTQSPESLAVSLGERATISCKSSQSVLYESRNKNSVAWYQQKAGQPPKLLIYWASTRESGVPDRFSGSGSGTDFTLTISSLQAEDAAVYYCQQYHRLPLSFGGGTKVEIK

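The starting antibody came from a phage panning campaign against this peptide. These sequences belong to a second round, designed from the earlier measurements on random variants of the parent. Group labels follow the data file (Ctrl: baseline library sampled from a position-specific scoring matrix, with some repeated check sequences; Rand: our label for a block that the file lists under HC and that is probably the random mutants of the ten best first-round binders; En: ensemble of fine-tuned language models; GP: Gaussian process model; GPLM: also part of the Gaussian process libraries; HC: hill climbing; Gen: genetic algorithm; Gibbs: Gibbs sampling; a sequence that several methods proposed may carry one label only). The scFvs were displayed on barcoded MATa yeast, the peptide on MATalpha yeast. After mating in shaken culture at 30 °C for 16 h, diploids were selected and their barcode pairs sequenced. A regression on co-assayed BCL2-family reference pairs converts the normalised counts of each replicate to an apparent Kd. Mating was done six times.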

Each variant is given by its three light chain CDRs, as the data file delimits them; those of the parent are KSSQSVLYESRNKNSVA, WASTRES, QQYHRLPLS.
Values are log10 of the apparent Kd in nM; lower means stronger binding.
Replicates are averaged; those with no signal do not enter the mean.
An entry "no signal" has no value in the source: the pair was not observed among the diploids in any replicate. This suggests poor binding but is not conclusive.
Of ten entries with the parent sequence, four were seen in most replicates (averages 0.34 to 2.37), three in one and three in none, so single entries are noisy.
The range of this assay differs from that of the first round, and the authors advise against merging the two.
Three control strains display no target. For all light chain designs, 4% of the pairings with them gave a signal, with a median of 2.64 and one signal in twenty below 1.59, so weak values seen in few replicates may be background.
The authors' rule: three or more of the six replicates give a measured affinity, fewer mean a poor binder.
A sequence that the file lists under several names has all its replicates pooled.

| CDR-L1 | CDR-L2 | CDR-L3 | group | log10 Kd (nM), mean | replicates with signal |
|---|---|---|---|---|---|
| KSVQSVLYESSNNNSVA | SASTRES | QQYHRGPLS | Ctrl | 2.07 | 5/6 |
| KLREVQHVESKQKGNVA | DNSTRES | QDYYRLPLS | En_HC | 1.98 | 5/6 |
| KFSQSQLYESRNKNSVA | NASYRES | QQYHRLPLS | GP_Gen | -0.06 | 6/6 |
| KSSISSLYEDRNDNSVA | NASQREH | QQYHRLPLS | GP_Gibbs | 0.30 | 6/6 |
| NIRGVEFESAMMGNSVA | GVDLREA | QQYFRLPLH | En_Gibbs | 0.49 | 6/6 |
| KSSQSVLYESNNKNNVA | AASTRES | QQYHRLPLS | Ctrl | 0.05 | 6/6 |
| KSSQIVLYESRNKNSVA | KASTRES | QQYHRLPLS | Ctrl | 1.23 | 6/6 |
| KSSQSVLYESRNKNPVA | SASTRES | QQYHRLPLS | Ctrl | 0.16 | 6/6 |
| MISTLTMYGSRNKNSVA | DLSTRGS | QQYHRLPLS | En_HC | 0.18 | 6/6 |
| KVSQSVLYESGTKNSVA | NASVRES | QQYHRLPLS | GP_HC | 0.70 | 6/6 |
| KQSQSNLCESRNKNSVA | DASTRES | QQYHRLPLS | GP_HC | 0.50 | 6/6 |
| VLAMESYQKYRHENNIA | GANMRAQ | QQYNRLPFQ | En_Gibbs | 0.11 | 6/6 |
| HMSALTLQGMRLRNSVA | QMTTREN | QQYDRLPLS | En_Gen | 0.95 | 6/6 |
| QIEWYNSGLLEAKNSVA | GVEHRMN | QQYMRLPLE | En_Gibbs | 0.12 | 6/6 |
| MISGSVMSESRLNNSVA | QTTTRES | QQYDRLPLS | En_HC | 1.55 | 5/6 |
| KSSQSVLYEDRNKNSVA | NASQRES | QQYHRLPLS | GP_Gen | 0.21 | 6/6 |
| KISQSVLYESRNKNSVA | NASTRES | QQYHRLPLS | Ctrl+GP_Gen | -0.03 | 12/12 |
| KLQGSELGESRNKNSVA | SADTREE | QQYHRLPLS | GP_Gibbs | 0.07 | 6/6 |
| KSSISDLIESRNKNSVA | EASTRES | QQYHRLPLS | GP_HC | -0.22 | 6/6 |
| KQLYSVLYESRNKNSVA | DASTRES | QQYHRLPLS | Rand | 0.59 | 6/6 |
| RFDQTEQEGIQDYNSVA | NGSQSGT | QHYSRLPIS | En_Gibbs | 1.85 | 6/6 |
| KLQQSVLYESRNKNNVA | DASTRES | QQYHRLPLS | GP_Gen | -0.30 | 6/6 |
| VFQQQWDGHTDTNNSVA | NVDERME | QQYYRLPLL | En_Gibbs | 0.96 | 5/6 |
| KSSSSVLYESRNKNSVA | EASIRES | QQYHRLPLS | Ctrl | 0.94 | 6/6 |
| TLSHSTDLESVHKNSIA | DLMTRES | QQYDRLPLS | En_HC | 0.58 | 6/6 |
| KVSQLWLYESRNKNSVA | NASTRES | QQYHRLPLS | GP_Gen | 0.04 | 6/6 |
| KLVNSTLYESRQKNSVA | HASTRES | QQYHRLPLS | GP_HC | 0.67 | 6/6 |
| HVSEMVFAQSKMRNSVA | ENSTRES | QQYDRLPLS | En_HC | 1.99 | 6/6 |
| KVSQSVLYESRNKNSVA | EASTRMS | QQYHRLPLS | GP_Gen | -0.09 | 6/6 |
| KLSQSVLGWSRNKNSVA | NASTRES | QQYHRLPLS | GP_Gibbs | -0.32 | 6/6 |
| KISMTSENQLKNRNSVA | ELVTRMS | QQYNRLPLS | En_Gen | 0.51 | 6/6 |
| KISGMSNHQSSVHNNVA | ENVTRVQ | QQYFRLPLS | En_Gen | 2.25 | 6/6 |
| KVSQSQLYEDGNSNSVA | NASVRES | QQYHRLPLS | GP_Gibbs | 0.44 | 6/6 |
| KSSQSVLYESRNKNSVA | EASSRES | QQYHRLPLS | Ctrl | 1.71 | 1/6 |
| KSDQSDLYESRNKNGVA | WASTRES | QQYHRLPLS | Ctrl | 1.50 | 2/6 |
| HQSQSVPMGERNKNSVA | MASYRES | QQYHRLPLS | GP_Gibbs | 1.28 | 6/6 |
| HMSMLTLGGLRHRNSVA | QMTTREN | QQYDRLPLA | En_Gen | 1.78 | 6/6 |
| KLSQSVRYESRNKNSVA | WASTREF | QQYHQLVLF | Ctrl | 1.93 | 5/6 |
| KSSQSVLYESRNKNSVA | WASTREA | QQYHSLPLS | Ctrl | 2.50 | 6/6 |
| TIGQTLMYGMRNRSNVA | EVSERLN | QQYDRLPLI | En_Gen | no signal | 0/6 |
| KCQGSQLYESRNKNAVA | NASTRCD | QQYHRLPLS | GP_Gibbs | -0.07 | 6/6 |
| KVRQSTLYESRNKNSVA | EASTRES | QQYHRLPLS | GP_HC | -0.43 | 6/6 |
| KLPQSNLYESRNKNSVA | NASTRLS | QQYHRLPLS | GP_Gen | -0.04 | 6/6 |
| KLDQSVLYESRNKNSVA | SASQRES | QQYHRLPLS | GP_Gen | -0.03 | 6/6 |
| KLSQSVLYEDRNKNSVA | NASQRLS | QQYHRLPLS | GP_Gen | -0.10 | 6/6 |
| TLYGLSLSMSKNTNSVA | EMTTRED | QQYDRLPLI | En_Gen | 1.45 | 6/6 |
| KFSQSQLYESRNKNSVA | EASTRES | QQYHRLPLS | GP_Gen | -0.07 | 6/6 |
| KLPQSQLYESRNKNAVA | NASQRES | QQYHRLPLS | GP_Gen | -0.37 | 6/6 |
| KLPQSVLYESRNKNSVA | NASTRFS | QQYHRLPLS | GP_Gen | 0.01 | 6/6 |
| KLSQSVGYESRNKNSVA | NASQRES | QQYHRLPLS | GP_Gen | -0.04 | 6/6 |
| SLSNQETEQIQHANSIA | DRDEVDV | QQYAHLPLS | En_Gibbs | 0.63 | 6/6 |
| TIAESMLYLSNLKNSIA | QAETRED | QQYHRLPIS | En_HC | 0.66 | 6/6 |
| KASQSVLFESRNKNSVA | DASTRES | QQYHRLPLS | GPLM_HC | 0.14 | 6/6 |
| MSSQSVLYESRNKNSVA | EISTRES | QQYHRMPLS | Ctrl | 1.33 | 6/6 |
| KSSQSVLYESRNKNSVA | WASIRIS | QQYHRLPLS | Ctrl | 2.43 | 1/6 |
| KSSQSFLYESRNFNSVA | GASTRES | QQYHRLTLS | Rand | 0.14 | 6/6 |
| KSSWGVDDESRNDNQVA | KASTRLS | QQYHRLPLS | GP_Gibbs | 0.44 | 6/6 |
| KSSISVLYESPNKNSVA | EASTRES | QQYHRLPLS | GP_HC | 0.54 | 6/6 |
| KVEQSDLYESRNKNSVA | EASTRES | QQYHRLPLS | GP_Gen | 0.03 | 6/6 |
| KVSQSYLYEQRNKNSVA | NASTRES | QQYHRLPLS | GP_Gen | 0.17 | 6/6 |
| KLSQSELYESRNKNSVA | NASTRLS | QDYHRLPLS | GP_Gen | -0.29 | 6/6 |
| KLSIMYQHTSREKNNIA | ERSTRES | QQYHHLPLS | En_HC | 1.32 | 6/6 |
| MLGDVAQGLSRKHNSVA | DNSTRES | QQYDRLPLS | En_Gen | 2.77 | 3/6 |
| MISQLYNMGTFAINSVA | QASLRCN | QQYDRLPLE | En_Gen | 2.80 | 5/6 |
| KVDISPTVQGMHKSGVA | EHDMRVG | QQYFRLPLA | En_Gibbs | 1.18 | 5/6 |
| KLMQSVLYESRNKNAVA | NASQRES | QQYHRLPLS | GP_Gen | 0.03 | 6/6 |
| KLPQSPLYESRNKNSVA | NASTRES | QQYHRLPLS | GP_Gen | -0.13 | 6/6 |
| KSSQMDLYESRNGNSVA | DASTRSD | QQYHRLPLS | GP_Gibbs | 0.23 | 6/6 |
| KSSQSVLDESRDKNSVA | NASTRES | QQYHRLPLS | Ctrl | 0.24 | 6/6 |
| LVSQQELYEDRNKNSVA | SASQRLS | QQYHRLPLS | GP_Gibbs | 0.36 | 6/6 |
| KSIQSVLYESNNKNSVA | WASTRES | QQYHRLPLS | Ctrl | 1.66 | 2/6 |
| MLTMFANENAGKSSNIA | DTNQLNT | QQYQRLPFM | En_Gibbs | 0.32 | 6/6 |
| KFSVSKEMVNKEGESIA | GSHTIQE | QQYSRLPLA | En_Gibbs | 1.55 | 2/6 |
| KLRQSTLYESRNPNSVA | AASTRES | QQYHRLPLS | GP_HC | 0.21 | 6/6 |
| SVTIEMLQQQEQYNSVA | GEQKTVD | QQYGRLPLS | En_Gibbs | 0.64 | 6/6 |

The first 9 entries again:

| CDR-L1 | CDR-L2 | CDR-L3 | group | log10 Kd (nM), mean | replicates with signal |
|---|---|---|---|---|---|
| KSVQSVLYESSNNNSVA | SASTRES | QQYHRGPLS | Ctrl | 2.07 | 5/6 |
| KLREVQHVESKQKGNVA | DNSTRES | QDYYRLPLS | En_HC | 1.98 | 5/6 |
| KFSQSQLYESRNKNSVA | NASYRES | QQYHRLPLS | GP_Gen | -0.06 | 6/6 |
| KSSISSLYEDRNDNSVA | NASQREH | QQYHRLPLS | GP_Gibbs | 0.30 | 6/6 |
| NIRGVEFESAMMGNSVA | GVDLREA | QQYFRLPLH | En_Gibbs | 0.49 | 6/6 |
| KSSQSVLYESNNKNNVA | AASTRES | QQYHRLPLS | Ctrl | 0.05 | 6/6 |
| KSSQIVLYESRNKNSVA | KASTRES | QQYHRLPLS | Ctrl | 1.23 | 6/6 |
| KSSQSVLYESRNKNPVA | SASTRES | QQYHRLPLS | Ctrl | 0.16 | 6/6 |
| MISTLTMYGSRNKNSVA | DLSTRGS | QQYHRLPLS | En_HC | 0.18 | 6/6 |